# PubChem BioAssay AID2521 (Sanford-Burnham Center for Chemical Genomics, 2010)
# Sequences of proteins named here, by UniProt entry; tags and fusion partners are left off.
# UniProt P35414, whole entry: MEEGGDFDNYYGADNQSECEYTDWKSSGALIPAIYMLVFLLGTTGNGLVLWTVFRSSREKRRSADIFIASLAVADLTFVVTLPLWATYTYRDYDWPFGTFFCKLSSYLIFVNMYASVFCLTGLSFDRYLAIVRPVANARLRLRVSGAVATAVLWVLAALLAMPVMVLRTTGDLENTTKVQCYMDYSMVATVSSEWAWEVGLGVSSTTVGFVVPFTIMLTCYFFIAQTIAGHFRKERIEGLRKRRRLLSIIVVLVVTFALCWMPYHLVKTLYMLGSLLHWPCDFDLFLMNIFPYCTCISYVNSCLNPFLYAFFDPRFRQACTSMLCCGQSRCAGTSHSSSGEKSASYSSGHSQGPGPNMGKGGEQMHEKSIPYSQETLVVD
# The list shows a part of the results, in another mix than the full data. Some results for these compounds are left out of this collection, so the calls shown say nothing about other tests. Activity calls are given as the source filed them.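 The calls were made as follows: active = inhibition above about 40% at 20 µM (limit read from the data); inactive = the rest.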
# Molecular target: Apelin receptor (Homo sapiens) (UniProt P35414)
# Test: blockade of apelin-induced APJ beta-arrestin recruitment – CHO-K1 cells, beta-arrestin complementation, luminescence, primary screen (AID 2521);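 also: cells challenged with 10 nM apelin-13 agonist together with compound; plate controls were apelin-13 plus DMSO wells for no effect and DMSO wells lacking apelin-13 for full effect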
# Conditions: at 20 µM, stronger effect = higher value
row,Structure (SMILES),inhibition
1,O=C(OC1CN2CCC1CC2)C(CO)(c1ccccc1)c1ccccc1 (centres undefined),inactive: 5.81%
2,COc1ccc(Br)c(C(=O)NCC2(N3CCCCC3)CCCCC2)c1,inactive: 10.1%
3,CC(C)Oc1ccc(C(=O)NCC2(N(C)C)CCCCC2)cc1,inactive: -2.77%
4,CN(C)c1cccc(C(=O)NCC2(N(C)C)CCCCC2)c1,inactive: 4.89%
5,CN(C)C1(CNC(=O)c2ccc(Br)cc2)CCCCC1,inactive: -32.7%
6,COc1cc(C(=O)NCC2(N(C)C)CCCCC2)c([N+](=O)[O-])cc1OC,inactive: -4.27%
7,COc1ccc(Cl)cc1C(=O)NCC1(N(C)C)CCCCC1,inactive: 8.81%
8,COc1cccc(C(=O)NCC2(N3CCCCC3)CCCCC2)c1,inactive: 3.13%
9,O=C(NCC1(N2CCCCC2)CCCCC1)c1cccc(Cl)c1,inactive: -1.87%
10,CN(C)C1CCCC1OC(=O)C(O)(c1ccccc1)c1ccccc1 (centres undefined),inactive: -16.2%
11,CN(C)c1ccc(C(=O)NCC2(N(C)C)CCCCC2)cc1,inactive: 13%
12,Cc1ccccc1C(=O)NCC1(N2CCCCC2)CCCCC1,inactive: 3.29%
13,O=C(NCC1(N2CCCCC2)CCCCC1)c1cc(F)c(F)cc1Cl,inactive: -0.76%
14,C=CCN1CCN(CCOC(=O)C(O)(c2ccccc2)c2ccccc2)CC1,inactive: -24.8%
15,COc1ccc(C(=O)NCC2(N(C)C)CCCCC2)cc1,inactive: -19.4%
16,O=C(NCC1(N2CCCCC2)CCCCC1)c1cccc(Br)c1,inactive: -1.65%
17,Cc1cc(C(=O)NCC2(N3CCCCC3)CCCCC2)ccc1[N+](=O)[O-],inactive: 5.86%
18,CCN1CCCC(OC(=O)C2(O)c3ccccc3C=Cc3ccccc32)C1 (centres undefined),inactive: -0.165%
19,O=C(NCC1(N2CCCCC2)CCCCC1)c1cc([N+](=O)[O-])ccc1Cl,inactive: -9.95%
20,CN1[C@@H]2CC[C@H]1CC(OC(=O)C(O)(c1ccccc1)c1ccccc1)C2 (some centres undefined),inactive: -11.9%
21,COc1cc(SC)ccc1C(=O)NCC1(N(C)C)CCCCC1,inactive: 11%
22,CCN(CC)CC(C)C(C)OC(=O)C(O)(c1ccccc1)c1ccccc1 (centres undefined),inactive: -34.5%
23,CC(C)N1C(=O)CC2(CCN(CCOC(=O)C(O)(c3ccccc3)c3ccccc3)CC2)C1=O,inactive: 5.21%
24,Cc1ccc(C(=O)NCC2(N3CCCCC3)CCCCC2)cc1,inactive: 28.3%
